Assay results from patent US7615651B2, “Diaryl, dipyridinyl and aryl-pyridinyl derivatives and uses thereof” (Pfizer Inc., priority 2006, dated 2009).
pKi: −log10 of the molar value. Where two headings read alike, the source gives them in different places.

The chains behind the UniProt entries cited, without tags or fusion partners.
UniProt P41143, whole entry: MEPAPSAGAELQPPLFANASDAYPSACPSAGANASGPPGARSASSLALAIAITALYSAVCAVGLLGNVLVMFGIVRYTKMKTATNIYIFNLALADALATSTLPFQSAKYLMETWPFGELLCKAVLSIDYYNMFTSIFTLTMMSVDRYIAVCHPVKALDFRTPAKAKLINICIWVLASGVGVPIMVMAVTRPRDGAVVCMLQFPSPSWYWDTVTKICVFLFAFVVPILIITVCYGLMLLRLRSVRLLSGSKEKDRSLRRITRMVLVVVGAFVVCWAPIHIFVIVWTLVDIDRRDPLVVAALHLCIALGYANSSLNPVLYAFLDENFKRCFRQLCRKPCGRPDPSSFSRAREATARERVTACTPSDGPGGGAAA
UniProt P41145, whole entry: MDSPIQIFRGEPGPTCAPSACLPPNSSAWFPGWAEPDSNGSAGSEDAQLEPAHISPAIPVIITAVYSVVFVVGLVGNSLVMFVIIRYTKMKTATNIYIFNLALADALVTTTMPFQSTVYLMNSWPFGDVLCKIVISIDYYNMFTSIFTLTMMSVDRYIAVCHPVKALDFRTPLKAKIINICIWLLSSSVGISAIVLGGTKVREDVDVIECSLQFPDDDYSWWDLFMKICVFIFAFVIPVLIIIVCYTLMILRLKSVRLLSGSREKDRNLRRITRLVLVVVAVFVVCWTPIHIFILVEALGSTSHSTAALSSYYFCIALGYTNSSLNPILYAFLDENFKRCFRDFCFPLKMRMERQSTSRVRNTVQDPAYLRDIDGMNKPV
UniProt P35372, whole entry: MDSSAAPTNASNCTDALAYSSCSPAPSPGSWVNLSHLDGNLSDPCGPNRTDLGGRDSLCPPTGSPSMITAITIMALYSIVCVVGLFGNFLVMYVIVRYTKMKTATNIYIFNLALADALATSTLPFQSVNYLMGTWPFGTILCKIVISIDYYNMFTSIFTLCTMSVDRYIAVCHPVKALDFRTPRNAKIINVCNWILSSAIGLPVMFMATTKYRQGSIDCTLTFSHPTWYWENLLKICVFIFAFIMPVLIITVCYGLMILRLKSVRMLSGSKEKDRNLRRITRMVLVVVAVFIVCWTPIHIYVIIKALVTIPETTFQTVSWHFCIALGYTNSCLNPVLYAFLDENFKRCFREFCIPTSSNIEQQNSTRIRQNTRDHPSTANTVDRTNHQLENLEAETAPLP

What was measured:
Assay type in all cases: biochemical
Conditions in all cases: average Ki
opioid receptor delta = opioid receptor delta (Homo sapiens, UniProt P41143); assay: GTPγ[35S] binding assay, antagonism of BW-373U86
opioid receptor kappa = opioid receptor kappa (Homo sapiens, UniProt P41145); assay: GTPγ[35S] binding assay, antagonism of dynorphin-A
opioid receptor mu = opioid receptor mu (Homo sapiens, UniProt P35372); assay: GTPγ[35S] binding assay, antagonism of endorphin

pKi (opioid receptor delta; read-out: Delta functional (GTPγ[35S] binding Ki), antagonism of BW-373U86 (1 nM) stimulated GTPγ[35S] binding, delta opioid receptor membranes, tested form: HCl)	pKi (opioid receptor kappa; read-out: Kappa functional (GTPγ[35S] binding Ki), antagonism of dynorphin-A (10 nM) stimulated GTPγ[35S] binding, kappa opioid receptor membranes, tested form: HCl)	pKi (opioid receptor mu; read-out: Mu functional (GTPγ[35S] binding Ki), antagonism of endorphin (1 μM) stimulated GTPγ[35S] binding, mu opioid receptor membranes, tested form: HCl)	SMILES	pKi (opioid receptor delta; read-out: Delta functional Ki (GTPγ[35S] binding), antagonism of BW-373U86 (1 nM) at delta opioid receptor membranes, tested form: TFA salt)	pKi (opioid receptor kappa; read-out: Kappa functional Ki (GTPγ[35S] binding), antagonism of dynorphin-A (10 nM) at kappa opioid receptor membranes, tested form: TFA salt)	pKi (opioid receptor mu; read-out: Mu functional Ki (GTPγ[35S] binding), antagonism of endorphin (1 μM) at mu opioid receptor membranes, tested form: TFA salt)
8.28	7.39	7.95	CC(C)OCCNCc1ccc(-c2cccc(C(N)=O)c2)c(Cl)c1			
			CCOC(=O)N1CCN(Cc2ccc(-c3cccc(C(N)=O)c3)c(Cl)c2)CC1	9.20	7.07	7.17
